Target: CueO (copper efflux oxidase) (Escherichia coli, UniProt P36649)
Experiment: cyclic voltammetry of electrocatalytic O2 reduction
Settings: immobilised on cysteamine-modified polycrystalline Au; O2-saturated phosphate buffer pH 6.5; 100 mM NaN3; direct electron transfer

Amino acid sequences for entries named in this document (tags omitted). Residues count along the entry.
UniProt P36649, 29-516 limits assumed: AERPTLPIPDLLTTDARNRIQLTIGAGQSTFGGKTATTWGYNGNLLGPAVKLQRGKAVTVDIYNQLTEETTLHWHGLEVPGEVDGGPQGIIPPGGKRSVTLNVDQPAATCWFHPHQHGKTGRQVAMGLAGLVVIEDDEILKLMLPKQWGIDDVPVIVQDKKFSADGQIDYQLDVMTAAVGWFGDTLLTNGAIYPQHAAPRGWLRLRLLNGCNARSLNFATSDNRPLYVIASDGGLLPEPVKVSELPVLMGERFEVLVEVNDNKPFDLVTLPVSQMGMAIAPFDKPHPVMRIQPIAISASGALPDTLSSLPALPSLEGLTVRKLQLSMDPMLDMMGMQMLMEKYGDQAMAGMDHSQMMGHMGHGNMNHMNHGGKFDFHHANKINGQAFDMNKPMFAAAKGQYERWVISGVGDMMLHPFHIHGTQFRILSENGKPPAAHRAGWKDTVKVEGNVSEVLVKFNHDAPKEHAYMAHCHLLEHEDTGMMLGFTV

SMILES: [N-]=[N+]=N
- cyclic voltammetry of electrocatalytic O2 reduction: F− and N3- behave as inhibitors of the catalytic ORR suppressing the activity of CueO
